Patent US20220370406A1, “METHOD OF TREATING STIMULANT USE DISORDER USING A COMBINATION OF TOPIRAMATE AND PHENTERMINE” (University of Kentucky Research Foundation, priority 2019, published 2022)

Assays:
[1] = system: participants with cocaine use disorder; test: Experimental sessions: cardiovascular measures after cocaine sampling dose during maintenance; conditions: cocaine 80 mg relative to cocaine 0 mg; maintenance topiramate (0 mg/day)+phentermine (0 mg/day)
[2] = system: participants with cocaine use disorder; test: Cocaine self-administration on progressive-ratio task during topiramate-phentermine maintenance; format: in vivo, human; conditions: cocaine 40 mg; topiramate (100 mg/day)+phentermine (0 mg/day) vs topiramate (0 mg/day)+phentermine (0 mg/day)

| Compound | systolic and diastolic blood pressure [1] | number of cocaine choices [2] |
| --- | --- | --- |
| COC(=O)[C@H]1[C@@H](OC(=O)c2ccccc2)C[C@@H]2CC[C@H]1N2C [Cocaine, cocaine] | significantly increased | – |
| CC1(C)O[C@@H]2[C@@H](CO[C@@]3(COS(N)(=O)=O)OC(C)(C)O[C@@H]23)O1 [topiramate] | – | significantly reduced |
